Test results from US10472333B2, “P2X4 receptor antagonist” (NIPPON CHEMIPHAR CO., LTD., priority 2013, dated 2019).

Target: T1, human P2X4 receptor (Homo sapiens, UniProt Q99571)
T1 sequence (Q99571 1-388): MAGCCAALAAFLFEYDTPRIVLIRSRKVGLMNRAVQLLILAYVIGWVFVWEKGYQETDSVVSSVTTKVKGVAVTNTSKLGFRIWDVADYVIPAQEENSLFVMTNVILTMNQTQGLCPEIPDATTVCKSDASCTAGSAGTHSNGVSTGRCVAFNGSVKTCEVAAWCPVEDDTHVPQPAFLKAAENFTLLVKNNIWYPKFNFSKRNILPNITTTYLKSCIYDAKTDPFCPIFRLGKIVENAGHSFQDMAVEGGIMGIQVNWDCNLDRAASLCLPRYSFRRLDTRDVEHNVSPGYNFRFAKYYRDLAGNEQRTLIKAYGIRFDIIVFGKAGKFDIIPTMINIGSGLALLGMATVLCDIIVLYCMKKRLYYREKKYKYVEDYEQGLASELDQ
Assay: P2X4 receptor antagonist activity, ATP-induced intracellular calcium (Fura-2 AM) in 1321N1 cells stably expressing human P2X4 receptor
Type: cell-based

For `CN(C)c1ncccc1C(=O)Nc1ccc(C2=NCC(=O)Nc3c2ccc2ccccc32)cc1.Cl.Cl` [Example 15, 2-(Dimethylamino)-N-[4-(2-oxo-2,3-dihydro-1H-naphtho[1,2-e][1,4]diazepin-5-yl)phenyl]nicotinamide dihydrochloride], which IC50 is on record?
The IC50 was 880 nM.

And the “selectivity for the P2X4 receptor” value (P2X4 versus P2X3 and P2X7 receptors, Table 11)?
The value was “high selectivity”.

And the IC50 (read-out: Inhibition of agonist-induced Ca^2+ influx (IC50), Human P2X4)?
Its IC50 is 880 nM.

Where two headings read alike, the source gives them in different places.
